Assay results from ChEMBL document CHEMBL1131920, “Periodinates: a new class of protein tyrosine phosphatase inhibitors” (Bioorg Med Chem Lett, 1999).

What was measured:
[1] = organism: Rattus norvegicus; assay: Inhibition of protein tyrosine phosphatase (PTP) activity in rat liver endosome insulin receptor (IR) dephosphorylation assay at 1 mM
[2] = organism: Rattus norvegicus; assay: Inhibition of protein tyrosine phosphatase (PTP) activity in rat liver endosome insulin receptor (IR) dephosphorylation assay at 0.1 mM

O=C(O)c1ccc(I(=O)=O)cc1
inhibition [1]: 69% | inhibition [2]: 36%
